{"source": "patent US6515010B1", "about": "(SmithKline Beecham Corporation, priority 1999, dated 2003)", "test": "pH-dependent solubility of carvedilol", "details": "salt formed in-situ in an acidic medium, such as simulated gastric fluid"}
{"substance": "Hydrochloride", "values": [{"measurement": "solubility in water relative to carvedilol", "result": "less soluble in water than carvedilol itself"}]}
